Assay: Transdermal absorption test (Franz cell)
Conditions: for Absorption Rate (%) / Total Transdermal Absorption Amount: 50 μl of 5% (w/v) solution in H2O on 1.7 cm^2 mouse skin, after 24 hours
Experimental: More specifically, a dorsal skin of 8-weeks aged female mouse (naked mouse) was cut off and then 5% (w/v) solution of the test sample was applied in an amount of 50 μl to the skin having a size of 1.7 cm^2. Using the apparatus for measuring transdermal absorption test (Franz cell), after 24 hours, the absorbed material was extracted from 7 ml of the receptor solution [50 mM PBS buffer solution (pH=7.4) containing 2% Vol PO20 polyethylene oleyl ether (HLB=16)] and then quantitatively analyzed by HPLC.

Which results are given for Ascorbic-2-polyphosphate?
Absorption Rate (%): 1.5%; Total Transdermal Absorption Amount: 0.037 mg

For 3-O-PEG350-Ascorbic Acid, which “Absorption Rate (%)” value is on record?
Its value is 12.0%.

And the “Total Transdermal Absorption Amount” value?
Its value is 0.3 mg.

What about the “transdermal absorption rate relative to the related art vitamin C” value (ratio drawn from Table 5) of the same substance?
The value was “eight-fold”.

Reference: US6444144B1, “Polyethoxylated ascorbic acid derivatives as a novel antioxidant and process for preparing thereof” (LG Chemical Ltd., priority 1998, dated 2002)
